Earlier results in patent US20060201053A1, “Barrier preventing wood pest access to wooden structures” (priority 2000, published 2006).

Tested on: Reticulitermes flavipes
Conditions: cited from earlier work

CC1(C)[C@H](C(=O)O[C@H](C#N)c2cccc(Oc3ccccc3)c2)[C@@H]1/C=C(\Cl)C(F)(F)F (racemic) [Lambda cyhalothrin]
lethal concentration that kills 99 percent of test termites (LC99): 0.0001 μg/termite
